This is an account of results in article PMC6816013 (Journal of Medicinal Chemistry, 2019).

Amino acid sequences for entries named in this document (tags omitted). A change or cut given only in a name is not applied to a line headed by its entry. Residues count along the entry.
UniProt Q12809: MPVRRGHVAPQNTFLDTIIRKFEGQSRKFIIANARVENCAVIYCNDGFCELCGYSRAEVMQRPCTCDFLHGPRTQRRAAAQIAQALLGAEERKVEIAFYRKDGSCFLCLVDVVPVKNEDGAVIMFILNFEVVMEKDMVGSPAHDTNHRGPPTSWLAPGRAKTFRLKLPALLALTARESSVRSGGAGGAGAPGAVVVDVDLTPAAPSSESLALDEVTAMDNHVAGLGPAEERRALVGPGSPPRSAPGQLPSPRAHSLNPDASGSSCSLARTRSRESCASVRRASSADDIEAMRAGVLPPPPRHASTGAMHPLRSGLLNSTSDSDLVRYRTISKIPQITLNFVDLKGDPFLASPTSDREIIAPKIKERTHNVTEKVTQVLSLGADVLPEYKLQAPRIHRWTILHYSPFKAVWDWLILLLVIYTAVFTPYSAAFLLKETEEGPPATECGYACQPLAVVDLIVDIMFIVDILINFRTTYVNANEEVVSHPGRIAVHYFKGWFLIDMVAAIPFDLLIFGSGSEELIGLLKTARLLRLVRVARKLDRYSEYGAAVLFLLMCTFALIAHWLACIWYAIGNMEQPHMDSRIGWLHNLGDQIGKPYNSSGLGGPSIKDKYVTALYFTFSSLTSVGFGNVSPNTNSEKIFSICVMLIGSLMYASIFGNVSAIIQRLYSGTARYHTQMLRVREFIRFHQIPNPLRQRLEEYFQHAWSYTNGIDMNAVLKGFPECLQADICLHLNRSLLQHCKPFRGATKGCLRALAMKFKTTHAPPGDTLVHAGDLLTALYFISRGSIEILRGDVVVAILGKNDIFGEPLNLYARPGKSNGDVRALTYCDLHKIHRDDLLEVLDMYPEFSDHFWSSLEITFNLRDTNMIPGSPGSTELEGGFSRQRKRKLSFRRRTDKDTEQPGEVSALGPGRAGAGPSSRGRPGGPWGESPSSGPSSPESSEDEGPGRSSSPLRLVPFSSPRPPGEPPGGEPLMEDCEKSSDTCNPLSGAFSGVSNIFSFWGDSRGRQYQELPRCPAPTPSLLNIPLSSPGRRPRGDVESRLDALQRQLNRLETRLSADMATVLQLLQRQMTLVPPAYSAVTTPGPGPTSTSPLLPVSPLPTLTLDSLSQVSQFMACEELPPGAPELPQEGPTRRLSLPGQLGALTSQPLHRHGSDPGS
UniProt P02768, 25-609: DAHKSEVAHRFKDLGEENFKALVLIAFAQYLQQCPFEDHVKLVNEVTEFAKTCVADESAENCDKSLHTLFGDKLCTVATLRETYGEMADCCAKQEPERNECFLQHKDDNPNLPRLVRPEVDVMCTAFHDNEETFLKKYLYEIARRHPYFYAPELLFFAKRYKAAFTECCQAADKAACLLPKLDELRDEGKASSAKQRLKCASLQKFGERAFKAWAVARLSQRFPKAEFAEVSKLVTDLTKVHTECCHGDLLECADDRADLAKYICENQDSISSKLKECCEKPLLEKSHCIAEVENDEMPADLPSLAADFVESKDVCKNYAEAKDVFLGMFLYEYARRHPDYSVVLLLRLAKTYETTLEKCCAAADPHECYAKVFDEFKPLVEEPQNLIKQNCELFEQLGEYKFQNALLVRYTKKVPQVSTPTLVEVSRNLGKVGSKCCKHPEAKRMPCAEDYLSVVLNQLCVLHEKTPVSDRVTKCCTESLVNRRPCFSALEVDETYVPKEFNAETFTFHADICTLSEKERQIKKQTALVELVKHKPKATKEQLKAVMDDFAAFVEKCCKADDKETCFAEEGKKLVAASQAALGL

Structures can show the parent of a compound that is named as a salt.

Tested on in the first data set: not listed separately
Nature of the data set: Cell cytotoxicity assay. The format is cell-based. As to conditions: compared to 31.
Consider `Cc1cc(Nc2nccc(-c3sc(C4CCNCC4)nc3C3CC3)n2)ccn1` [Compound 59, 4-(4-Cyclopropyl-2-(piperidin-4-yl)thiazol-5-yl)-N-(2-methylpyridin-4-yl)pyrimidin-2-amine Dihydrochloride], for which the “fold attenuation of cytotoxicity” value was found to be 2.5 fold.

The target in a further data set is hERG (Homo sapiens, UniProt Q12809).
Assay: not given
Details: not given
For the compound `Cc1cc(Nc2nccc(-c3sc(C4CCNCC4)nc3C3CC3)n2)ccn1` [Compound 59, 4-(4-Cyclopropyl-2-(piperidin-4-yl)thiazol-5-yl)-N-(2-methylpyridin-4-yl)pyrimidin-2-amine Dihydrochloride], the “fold attenuation of hERG inhibitory activity” value was found to be 5 fold.

For the next data set, the target named is HSA (Homo sapiens, UniProt P02768). Nature of the data set: HSA binding (plasma protein binding).
Details: not given
In turn, `c1cc(Nc2nccc(-c3sc(C4CCNCC4)nc3C3CC3)n2)ncn1` [Compound 58, 4-(4-Cyclopropyl-2-(piperidin-4-yl)thiazol-5-yl)-N-(pyrimidin-4-yl)pyrimidin-2-amine Hydrochloride] showed an HSA binding of 93%.

Staying with this data set, now noted: HSA.
`Fc1ccc(-c2nc(N3CCOCC3)sc2-c2ccnc(Nc3ccc(N4CCNCC4)cc3)n2)cc1` [Compound 9, 4-[4-(4-Fluorophenyl)-2-(morpholin-4-yl)-1,3-thiazol-5-yl]-N-[4-(piperazin-1-yl)phenyl]pyrimidin-2-amine Trifluoroacetate] displayed an HSA binding of 97%.

For the compound `Fc1ccc(-c2nc(N3CCCC3)sc2-c2ccnc(Nc3ccc(N4CCNCC4)cc3)n2)cc1` [Compound 10, 4-[4-(4-Fluorophenyl)-2-(pyrrolidin-1-yl)-1,3-thiazol-5-yl]-N-[4-(piperazin-1-yl)phenyl]pyrimidin-2-amine Trifluoroacetate], the HSA binding was found to be 98%.

In turn, `CN1CCN(c2ccc(Nc3nccc(-c4sc(N)nc4-c4ccc(F)cc4)n3)cc2)CC1` [Compound 11, 4-[2-Amino-4-(4-fluorophenyl)-1,3-thiazol-5-yl]-N-[4-(4-methylpiperazin-1-yl)phenyl]pyrimidin-2-amine Trifluoroacetate] returned an HSA binding of 97%.

For the compound `O=C(Nc1nc(-c2ccc(F)cc2)c(-c2ccnc(Nc3ccc(N4CCNCC4)cc3)n2)s1)C1CC1` [Compound 15, N-[4-(4-Fluorophenyl)-5-{2-[4-(piperazin-1-yl)anilino]pyrimidin-4-yl}-1,3-thiazol-2-yl]cyclopropanecarboxamide Trifluoroacetate], the HSA binding came to 92%.

Compound `CN1CCC(C(=O)Nc2nc(-c3ccc(F)cc3)c(-c3ccnc(Nc4ccc(N5CCNCC5)cc4)n3)s2)CC1` [Compound 16, N-[4-(4-Fluorophenyl)-5-{2-[4-(piperazin-1-yl)anilino]pyrimidin-4-yl}-1,3-thiazol-2-yl]-1-methylpiperidine-4-carboxamide Trifluoroacetate] registered an HSA binding of 97%.

For the compound `CCCS(=O)(=O)Nc1nc(-c2ccc(F)cc2)c(-c2ccnc(Nc3ccc(N4CCNCC4)cc3)n2)s1` [Compound 17, N-[4-(4-Fluorophenyl)-5-{2-[4-(piperazin-1-yl)anilino]pyrimidin-4-yl}-1,3-thiazol-2-yl]propane-1-sulfonamide Trifluoroacetate], the HSA binding came out at 98%.

`O=S(=O)(Nc1nc(-c2ccc(F)cc2)c(-c2ccnc(Nc3ccc(N4CCNCC4)cc3)n2)s1)C1CCNCC1` [Compound 18, N-[4-(4-Fluorophenyl)-5-{2-[4-(piperazin-1-yl)anilino]pyrimidin-4-yl}-1,3-thiazol-2-yl]piperidine-4-sulfonamide Trifluoroacetate]: the HSA binding came out at 96%.

With `CCOc1nccc(Nc2nccc(-c3sc(C4CCNCC4)nc3-c3ccc(F)cc3)n2)n1` [Compound 30, N-(2-Ethoxypyrimidin-4-yl)-4-[4-(4-fluorophenyl)-2-(piperidin-4-yl)-1,3-thiazol-5-yl]pyrimidin-2-amine Trifluoroacetate], the HSA binding came to 94%.

In turn, `Oc1cc(Nc2nccc(-c3sc(C4CCNCC4)nc3-c3ccc(F)cc3)n2)ccn1` [Compound 33, 4-({4-[4-(4-Fluorophenyl)-2-(piperidin-4-yl)-1,3-thiazol-5-yl]pyrimidin-2-yl}amino)pyridin-2-ol Trifluoroacetate] gave an HSA binding of 90%.

On to `COc1cc(Nc2nccc(-c3sc(C4CCNCC4)nc3-c3ccc(F)cc3)n2)cc(C)n1` [Compound 34, 4-[4-(4-Fluorophenyl)-2-(piperidin-4-yl)-1,3-thiazol-5-yl]-N-(2-methoxy-6-methylpyridin-4-yl)pyrimidin-2-amine Trifluoroacetate], for which the HSA binding amounted to 95%.

`Cc1cc(Nc2nccc(-c3sc(C4CCNCC4)nc3C3CC3)n2)ccn1` [Compound 59, 4-(4-Cyclopropyl-2-(piperidin-4-yl)thiazol-5-yl)-N-(2-methylpyridin-4-yl)pyrimidin-2-amine Dihydrochloride]: the HSA binding turned out to be 97%.
